Results: PubChem BioAssay AID1230 (PCMD, 2008)
The entries are a selection whose mix differs from that of the whole data set. Active and inactive are the calls of the source.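 The calls were made as follows: active = signal enhancement of 30% or more; inactive = the rest.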

By UniProt entry, the sequences of proteins in these tests, tags left out.
UniProt Q00987, whole entry: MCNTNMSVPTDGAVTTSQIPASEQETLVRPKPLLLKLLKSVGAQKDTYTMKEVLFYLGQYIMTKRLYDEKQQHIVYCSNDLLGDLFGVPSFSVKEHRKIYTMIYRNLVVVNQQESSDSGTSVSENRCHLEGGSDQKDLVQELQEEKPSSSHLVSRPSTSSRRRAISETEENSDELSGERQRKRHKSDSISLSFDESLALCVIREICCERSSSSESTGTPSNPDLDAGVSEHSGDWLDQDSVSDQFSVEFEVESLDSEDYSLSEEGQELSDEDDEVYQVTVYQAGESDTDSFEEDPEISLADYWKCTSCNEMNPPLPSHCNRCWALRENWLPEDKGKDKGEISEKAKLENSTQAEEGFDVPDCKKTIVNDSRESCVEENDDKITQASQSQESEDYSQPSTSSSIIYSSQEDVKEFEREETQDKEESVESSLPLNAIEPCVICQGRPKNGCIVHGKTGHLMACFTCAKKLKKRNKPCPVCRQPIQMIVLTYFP

What follows are compounds tested against E3 ubiquitin-protein ligase Mdm2 (Homo sapiens) (UniProt Q00987) (assay: increase of MDM2 autoubiquitination reporter luminescence – cell-based, 1536-well, MDM2 E3 ligase inhibitor project, primary screen (AID 1230;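 also: luminescence tracks abundance of the self-degrading MDM2-luciferase fusion protein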)). Details: cell-based MDM2 ubiquitination luciferase reporter, 2 h; at 5 µM; stronger effect = higher value; 0 = plate control, 100 = twice control, blank-subtracted.
How it was run: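 Material: Stable MDM2–luciferase fusion reporter cells | Amount: 2000 cells seeded into each well | Dosing: One concentration, 5 µM, with 0.2% DMSO | Incubation: 4 h cell settling then 2 h compound exposure, 37 °C | Measured by: Luciferase luminescence | Read-out basis: % enhancement relative to plate controls after blank subtraction | Benchmarks: Control and blank well means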

| SMILES | signal enhancement |
| --- | --- |
| CN1CCN(CCOC(=O)C(O)(c2ccccc2)c2ccccc2)CC1 | inactive: -8.74% |
| COc1ccc(NC2CCN(C(=O)OC(C)(C)C)CC2)cc1 | inactive: -19% |
| O=C(NCC1(N2CCOCC2)CCCCC1)c1cc(=O)[nH]c2ccccc12 | inactive: -22.1% |
| O=C(NCC1(N2CCCCC2)CCCCC1)c1cccc([N+](=O)[O-])c1 | inactive: -3.35% |
| N#CC1(Nc2ccccc2)CCN(CCc2ccccc2)CC1 | inactive: -2.23% |
| COc1ccc(CN(CCCl)CCCl)cc1Cl | inactive: 14.6% |
| CN(C)c1cccc(C(=O)NCC2(N3CCCCC3)CCCCC2)c1 | inactive: -17.3% |
| CC(C)c1ccc(NC2CCN(C(=O)OC(C)(C)C)CC2)cc1 | inactive: -8.8% |
| O=C(NCC1(N2CCOCC2)CCCCC1)c1cc2ccccc2o1 | inactive: -14.3% |
| CCOC(=O)N1CCC(Nc2ccc(OC)cc2)CC1 | inactive: 3.89% |
| O=C(OC1CN2CCC1CC2)C1c2ccccc2Oc2ccccc21 (centres undefined) | inactive: -13.6% |
| N#CC1(Nc2ccccc2)CCN(Cc2ccccc2)CC1 | inactive: -8.12% |
| COc1ccc(C(=O)NCC2(N3CCCCC3)CCCCC2)c(OC)c1OC | inactive: -8.91% |
| Cc1ccc(OCC(C)C)c(CN(CCCl)CCCl)c1 | inactive: -0.41% |
| CCOc1ccc(C)cc1CN(CCCl)CCCl | inactive: -4% |
| COc1ccc(NC2CCN(CCc3ccccc3)CC2)c(OC)c1 | inactive: -11.8% |
| CCN1CCC(Nc2cccc(F)c2)CC1 | inactive: -3.14% |
| CN(C)c1ccc(C(=O)NCC2(N3CCCCC3)CCCCC2)cc1 | inactive: -7.83% |
| Fc1ccccc1NC1CCN(Cc2ccccc2)CC1 | inactive: -0.4% |
| CCC(CO)(C(=O)OC1CN2CCC1CC2)c1ccccc1 (centres undefined) | inactive: 6.71% |
| COc1cc(OC)cc(C(=O)NCC2(N3CCOCC3)CCCCC2)c1 | inactive: -13.4% |
| CCCOc1ccc(C)cc1CN(CCCl)CCCl | inactive: 5.36% |
| CCOc1ncccc1C(=O)NCC1(N2CCOCC2)CCCCC1 | inactive: -8.07% |
| CC(C)(C)OC(=O)N1CCC(Nc2ccccc2)CC1 | inactive: -5.83% |
| N/C(=N\O)c1c(N)no[n+]1[O-] | inactive: 3.8% |
| O=C(OC1CN2CCC1CC2)C1c2ccccc2C=Cc2ccccc21 (centres undefined) | inactive: -3.45% |
| COc1ccc(C(=O)NCC2(N3CCOCC3)CCCCC2)cc1OC | inactive: 5.75% |
| c1ccc(CN2CCC(Nc3ccccc3)CC2)cc1 | inactive: -11.5% |
| N#Cc1ccc(C(=O)NCC2(N3CCCCC3)CCCCC2)cc1 | inactive: -11.4% |
